The source of these data is ChEMBL document CHEMBL5620362, “Discovery, structural optimization, and anti-tumor bioactivity evaluations of betulinic acid derivatives as a new type of RORγ antagonists” (Eur J Med Chem, 2023).

By UniProt entry, the sequences of proteins in these tests, tags left out. Where a name states a change or a piece, a line headed by the entry shows the natural chain unless it says otherwise.
UniProt P51449: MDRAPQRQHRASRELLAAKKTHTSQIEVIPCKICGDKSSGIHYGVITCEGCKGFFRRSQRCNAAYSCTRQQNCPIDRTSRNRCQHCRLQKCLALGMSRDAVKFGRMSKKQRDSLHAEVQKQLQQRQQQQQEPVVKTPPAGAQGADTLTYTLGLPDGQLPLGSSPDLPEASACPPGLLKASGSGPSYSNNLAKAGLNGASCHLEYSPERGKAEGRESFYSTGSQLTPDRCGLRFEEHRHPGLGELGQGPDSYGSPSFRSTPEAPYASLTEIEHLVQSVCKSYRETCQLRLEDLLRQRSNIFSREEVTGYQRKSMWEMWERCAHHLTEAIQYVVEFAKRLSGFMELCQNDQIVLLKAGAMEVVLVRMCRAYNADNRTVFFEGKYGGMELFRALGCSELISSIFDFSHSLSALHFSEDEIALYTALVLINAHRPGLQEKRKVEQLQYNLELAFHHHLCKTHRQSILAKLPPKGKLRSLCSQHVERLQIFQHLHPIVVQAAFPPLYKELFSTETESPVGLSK

Test [1] has as its target T1, Nuclear receptor ROR-gamma (Homo sapiens, UniProt P51449). The settings on record: filed as antagonist, dose 20.0 µM.
In test [2] the target is T1, Nuclear receptor ROR-gamma. The settings on record: filed as antagonist, dose 20.0 µM. This is another data set of the same source.

Compound `C=C(C)[C@@H]1CC[C@]2(C(=O)O)CC[C@]3(C)[C@H](CC[C@@H]4[C@@]5(C)CC[C@H](O)C(C)(C)[C@@H]5CC[C@]43C)[C@@H]12` [BETULINIC ACID] registered a deltaS in test [1] of 3 kcal/mol. The deltaH in test [2] is -10.5 kcal/mol.
